The text below walks through data of US11352334B2, “3-(5-chloro-2-oxobenzo[d]oxazol-3(2H)-yl) propanoic acid derivatives as KMO inhibitors” (THE UNIVERSITY COURT OF THE UNIVERSITY OF EDINBURGH, priority 2013, dated 2022).

Protein sequences, listed by entry. Tags and fused reporters are not part of them. Lines headed by an entry give the natural chain unless they say otherwise; changes in a name come on top.
UniProt O15229: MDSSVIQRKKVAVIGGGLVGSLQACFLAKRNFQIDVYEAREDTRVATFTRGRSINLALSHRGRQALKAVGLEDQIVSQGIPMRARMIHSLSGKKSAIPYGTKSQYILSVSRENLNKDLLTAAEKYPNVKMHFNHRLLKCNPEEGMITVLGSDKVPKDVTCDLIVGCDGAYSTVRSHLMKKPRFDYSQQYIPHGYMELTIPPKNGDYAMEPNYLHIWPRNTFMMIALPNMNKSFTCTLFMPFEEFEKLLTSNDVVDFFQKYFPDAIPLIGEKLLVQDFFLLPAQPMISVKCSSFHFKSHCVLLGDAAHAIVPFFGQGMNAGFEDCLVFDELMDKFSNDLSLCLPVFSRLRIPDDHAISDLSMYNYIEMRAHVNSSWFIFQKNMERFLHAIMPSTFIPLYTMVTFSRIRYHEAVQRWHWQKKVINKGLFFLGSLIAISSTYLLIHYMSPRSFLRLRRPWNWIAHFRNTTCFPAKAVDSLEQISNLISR

The structures appear in SMILES notation. Where a name gives a salt, the structure may show the parent alone.

The target in this assay is T1, human KMO (Homo sapiens, UniProt O15229).
T1 construct: Full length human KMO was amplified by PCR from pcDNA5/FRT/V5-His-TOPO/hKMO; made in house; host or cells: Spodoptera frugiperda Sf9 cells (baculovirus); purified membrane fraction used
Briefly: KMO MS Rapidfire assay. In kind it is biochemical. The note with it: human KMO-membranes from Sf9 cells, 10 μM Kynurenine, 200 μM NADPH, 3-HK detected by MS. As to the method:
pFastbac1 GST-KMO was transposed into the baculovirus genome using the BAC-to-BAC technology (Invitrogen) and bacmid DNA was prepared and transfected into Spodoptera frugiperda (Sf9) cells using Cellfectin II (Invitrogen).
Cells were harvested after 48 hours and disrupted by blending in 50 mM Hepes, pH 7.4, 1 mM EDTA buffer containing protease inhibitors. A low speed spin (400 g) was used to remove cell debris, followed by a high speed spin (75 000 g) to pellet the membranes. The membranes were purified in a discontinuous sucrose density gradient by re-suspending in 10% (w/v) sucrose and layering over 40% (w/v) sucrose, both in the above buffer. This was centrifuged at 150 000 g and the purified membranes were taken from the interface, collected by centrifugation at 100 000 g, resuspended in buffer and aliquoted for storage at −80° C.
11 point, 3-fold serial dilutions of test compounds were prepared in DMSO and 100 nL of these solutions were dispensed into 384-well V-base polypropylene plates (Greiner Bio-one, Stonehouse, UK) using an Echo 555 acoustic dispenser (Labcyte, Sunnyvale, Calif.). This gave a final assay concentration range between 100 μM and 1.7 nM in 10 μL final assay volume (see below). 100 nL DMSO was dispensed into columns 6 and 18 for high and low controls, respectively, with prior inactivation of the enzyme in column 18 by pre-dispense of 30 μL of 0.5% (v/v) TFA. […]

For the compound `CC(Oc1cc2oc(=O)n(CCC(=O)O)c2cc1Cl)c1ccccn1` (stereo not shown) [Example 2, 3-(5-chloro-2-oxo-6-(1-(pyridin-2-yl)ethoxy)benzo[d]oxazol-3(2H)-yl)propanoic acid, 2-Amino-2-(hydroxymethyl)-1,3-propanediol Salt], the “median pIC50” value is reported as 8.4.
